This is a selection; strong and weak results do not stand in their true shares. Calls of active or inactive are those of the source.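 How the source made its calls: active means inhibition of at least 50% at 8 µM in the primary screen; inactive means the rest.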
molecular target: Protein Mdm4 (Homo sapiens) + E3 ubiquitin-protein ligase Mdm2 (Homo sapiens) (UniProt O15151+Q00987); assay: disruptors of Mdm2/MdmX RING complex – cell-based, luminescence, split luciferase, SaOS-2, uHTS, primary screen (AID 485346); settings: SaOS-2 split-luciferase Mdm2/MdmX complementation, at 8 µM, active compounds read high

Chains of the proteins cited; added tags and fusions are not shown.
UniProt O15151, whole entry, looked up: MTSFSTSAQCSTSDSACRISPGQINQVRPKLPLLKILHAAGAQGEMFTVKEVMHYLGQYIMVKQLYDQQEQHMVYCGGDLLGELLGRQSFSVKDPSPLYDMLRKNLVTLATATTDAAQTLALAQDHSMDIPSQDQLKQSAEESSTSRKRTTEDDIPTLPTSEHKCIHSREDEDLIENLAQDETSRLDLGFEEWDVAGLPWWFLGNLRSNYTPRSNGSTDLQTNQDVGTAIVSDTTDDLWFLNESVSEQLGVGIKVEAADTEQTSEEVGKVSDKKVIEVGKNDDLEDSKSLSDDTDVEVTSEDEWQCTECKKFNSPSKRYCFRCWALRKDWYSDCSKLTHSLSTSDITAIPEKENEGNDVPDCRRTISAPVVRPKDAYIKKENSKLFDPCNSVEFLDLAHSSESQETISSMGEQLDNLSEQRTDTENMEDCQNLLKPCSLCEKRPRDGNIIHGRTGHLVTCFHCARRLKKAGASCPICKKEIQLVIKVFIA
UniProt Q00987, whole entry, looked up: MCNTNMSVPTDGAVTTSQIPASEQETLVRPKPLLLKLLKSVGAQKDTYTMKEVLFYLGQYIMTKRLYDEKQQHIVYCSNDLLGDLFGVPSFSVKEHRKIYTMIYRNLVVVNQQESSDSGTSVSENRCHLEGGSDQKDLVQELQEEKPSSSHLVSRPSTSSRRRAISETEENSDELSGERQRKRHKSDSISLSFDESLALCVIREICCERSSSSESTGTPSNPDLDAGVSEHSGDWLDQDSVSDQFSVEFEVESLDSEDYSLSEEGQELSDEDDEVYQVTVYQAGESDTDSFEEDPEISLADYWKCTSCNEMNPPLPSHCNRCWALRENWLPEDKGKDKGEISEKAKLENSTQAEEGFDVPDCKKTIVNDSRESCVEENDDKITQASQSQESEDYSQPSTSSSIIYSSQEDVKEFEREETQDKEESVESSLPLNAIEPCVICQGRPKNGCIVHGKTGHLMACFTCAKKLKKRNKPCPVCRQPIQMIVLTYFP

Structure (SMILES)	inhibition
CCC(=O)N(c1ccccc1)C1(COC)CCN(CCn2nnn(CC)c2=O)CC1	inactive: 25.5%
CCC(=O)N(c1ccccc1)C1(COC)CCN(CCc2cccs2)CC1	inactive: 9.74%

Reference: PubChem BioAssay AID485346 (Sanford-Burnham Center for Chemical Genomics, 2010)
